The text below walks through data of patent publication US20070141120A1, “Peptide having an ace inhibiting effect” (priority 2003, published 2007).

Amino acid sequences for entries named in this document (tags omitted). Residues count along the entry.
UniProt P12821, 30-1306, species assumed: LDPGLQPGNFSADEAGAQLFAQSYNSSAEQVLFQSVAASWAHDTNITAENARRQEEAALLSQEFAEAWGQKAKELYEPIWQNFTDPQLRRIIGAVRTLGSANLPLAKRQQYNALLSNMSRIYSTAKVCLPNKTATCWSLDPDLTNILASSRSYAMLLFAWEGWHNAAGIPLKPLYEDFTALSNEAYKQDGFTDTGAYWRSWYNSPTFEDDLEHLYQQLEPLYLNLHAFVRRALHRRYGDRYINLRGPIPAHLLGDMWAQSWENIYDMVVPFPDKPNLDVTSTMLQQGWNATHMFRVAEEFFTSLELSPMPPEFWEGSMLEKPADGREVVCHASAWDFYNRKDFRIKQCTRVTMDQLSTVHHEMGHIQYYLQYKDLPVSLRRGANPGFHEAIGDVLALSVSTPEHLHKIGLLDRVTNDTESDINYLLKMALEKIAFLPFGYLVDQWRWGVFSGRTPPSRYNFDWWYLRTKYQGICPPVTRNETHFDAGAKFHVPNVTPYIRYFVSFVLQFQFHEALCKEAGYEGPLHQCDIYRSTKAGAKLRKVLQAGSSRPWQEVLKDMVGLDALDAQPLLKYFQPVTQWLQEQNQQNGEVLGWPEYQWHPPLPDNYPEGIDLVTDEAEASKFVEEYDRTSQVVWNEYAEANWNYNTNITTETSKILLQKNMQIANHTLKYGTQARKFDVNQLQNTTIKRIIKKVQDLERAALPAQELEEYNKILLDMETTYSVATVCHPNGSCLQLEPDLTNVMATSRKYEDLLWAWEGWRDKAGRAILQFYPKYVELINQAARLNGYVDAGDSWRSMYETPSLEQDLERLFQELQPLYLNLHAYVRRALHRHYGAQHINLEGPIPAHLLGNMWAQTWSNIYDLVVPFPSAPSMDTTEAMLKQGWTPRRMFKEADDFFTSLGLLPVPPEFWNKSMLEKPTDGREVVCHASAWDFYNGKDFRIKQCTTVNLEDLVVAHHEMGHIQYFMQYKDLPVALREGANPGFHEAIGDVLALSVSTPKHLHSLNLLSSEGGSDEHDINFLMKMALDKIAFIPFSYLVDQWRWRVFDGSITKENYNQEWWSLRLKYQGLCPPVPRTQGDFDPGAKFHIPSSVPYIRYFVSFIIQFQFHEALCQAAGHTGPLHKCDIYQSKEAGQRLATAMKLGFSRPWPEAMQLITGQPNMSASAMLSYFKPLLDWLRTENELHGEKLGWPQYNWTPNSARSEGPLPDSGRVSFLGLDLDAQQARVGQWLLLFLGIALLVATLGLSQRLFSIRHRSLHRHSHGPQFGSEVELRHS

Test [1] has as its system ACE. In words: ACE-inhibition assay 2: modified Matsui assay. It is filed as biochemical. Conditions: substrate Hip-His-Leu, pH 8.3, 37° C., 30 min. How it is done: This ACE inhibition activity was assayed according to the method of Matsui et al. (Matsui, T. et al. (1992) Biosci. Biotech. Biochem. 56: 517-518) with the modifications described below.
For each sample 75 μl 3 mM hippuryl histidine leucine (Hip-His-Leu, Sigma chemicals Co.; the chemical was dissolved in 250 mM Borate containing 200 mM NaCl, pH 8.3); 20 μl 0.1 U/ml ACE (obtained at Sigma) or H2O, and 25 μl sample or H2O were mixed (see Table 1). The mixtures were incubated at 37° C. and stopped after 30 min by adding 125 μl 0.5 M HCl. Subsequently, 225 μl bicine/NaOH solution (1 M NaOH:0.25 M bicine (4:6)) was added, followed by 25 μl 0.1 M TNBS (2,4,6-Trinitrobenzenesulfonic acid, Fluka, Switzerland; in 0.1 M Na2HPO4). After incubation for 20 min. at 37° C., 4 ml 4 mM Na2SO3 in 0.2 M NaH2PO4 was added and the absorbance at 416 nm was measured with UV/Vis spectrophotometer (Shimadzu UV-1601 with a CPS controller, Netherlands).
The amount of ACE inhibition (ACEI) activity was calculated as a percentage of inhibition compared with the conversion rate of ACE in the absence of an inhibitor: ACEI (%)=(((C1−C2)−(S1−S2))/(C1−C2))*100 (1)
C1=Absorbance without ACE inhibitory component (=max. ACE activity) [AU].
C2=Absorbance without ACE inhibitory component and without ACE (background) [AU].
S1=Absorbance in the presence of ACE and the ACE inhibitory component [AU].
S2=Absorbance in the presence of the ACE inhibitory component, but without ACE [AU].

Test [2] concerns the target ACE (Homo sapiens, UniProt P12821). In words: ACE-inhibition assay 1: enzyme based assay (EBA). It is filed as biochemical. Conditions: substrate Abz-FRK-(Dnp)P-OH, pH 7.0, fluorescence. How it is done: ACE and a synthetic substrate (Abz-FRK-(Dnp)P-OH) were used in the ACE-inhibition assay performed in white optiplate-96 microplates (Packard Bioscience). The substrate was a kind gift of Adriana K. Carmona (Dept. of Biophysics, Escola Paulista de Medivina, Universidae Federal de Sao Paulo, Brazil). Stock solutions of Abz-FRK-(Dnp)P-OH were prepared in DMSO. […] The assay buffer composition was 100 mM tris/HCl buffer pH 7.0 containing 100 mM NaCl. Forty μl sample solution in assay buffer was added to each well. In case of the controls only buffer was added. The samples were measured in threefold in a fluorophotometer (Fluostar, BMG labtechnologies). […] The ACE activity was measured for 10 cycles (about 10 minutes) by measuring the fluorescence at λex=320 nm and ξem=420 nm. The raw data was converted to the slope/sec and the ACE inhibition activity was calculated using the equation below. ACE inhibition (%)=[1−(Smean−Bmean)/(Cmean−Bmean)]*100
Bmean=average result of background (substrate)

`CC[C@H](C)[C@H](N)C(=O)N1CCC[C@H]1C(=O)N1CCC[C@H]1C(=O)O` [IPP]: the IC50 with ACE [1] was 2 µM; against ACE [2], 12 µM. For the molecule `N[C@@H](CO)C(=O)N1CCC[C@H]1C(=O)N1CCC[C@H]1C(=O)O` [SPP], the IC50 was over 50 µM in the test on ACE [1] and 75 µM against ACE [2].

In the test with ACE [1], `CC[C@H](C)[C@H](N)C(=O)N[C@H](C(=O)N[C@@H](C)C(=O)N[C@@H](CCC(=O)O)C(=O)N[C@@H](CCCCN)C(=O)O)[C@@H](C)CC` [IIAEK] yielded an IC50 of over 20 µM. In the case of `CC(C)[C@H](N)C(=O)N1CCC[C@H]1C(=O)N1CCC[C@H]1C(=O)O` [VPP], the concentration for half-maximal inhibition (IC50) with ACE [1] worked out at 3 µM; at ACE [2], 20 µM. Taken in the same sequence, the figures for `CC(C)C[C@H](NC(=O)[C@@H]1CCCN1C(=O)[C@H](CC(C)C)NC(=O)[C@@H](N)Cc1c[nH]cn1)C(=O)N1CCC[C@H]1C(=O)O` [HLPLP] were 17 µM and 15 µM. The like results for `CC[C@H](C)[C@H](N)C(=O)N[C@H](C(=O)N1CCC[C@H]1C(=O)O)[C@@H](C)O` [ITP] were, in that order, 10 µM and 30 µM.
